Laboratory results from patent US20030119719A1, “Use of endothelin conjugates in therapy, new endothelin conjugates, agents that contain the latter, and process for their production” (priority 1996, published 2003).
“Also recorded” adds a separate entry of the source.

Legend:
common carotid artery = experiment: Local application via administration catheter in the denuded common carotid artery, dynamic scintigraphy and autoradiography
From the text: b) Local Application of the Tc-99m Complex of NH2-Asp-Gly-Gly-Cys-Gly-Cys-Phe-(D-Trp)-Leu-Asp-Ile-Ile-Trp-OH as well as Tc-99m-pertechnetate in the Common Carotid Artery of White New Zealand Rabbits
In anesthetized white New Zealand rabbits (3.5 kg), the right common carotid artery was opened up. A 2 F balloon catheter (from the Baxter Company) was inserted cranially through a cut, and a vascular area approximately 5 cm long was denuded twice with 0.9% saline after the catheter was inflated. Then, an administration catheter (coronary perfusion/infusion catheter, dispatch 3.0, Baxter Company) was fed to the above-denuded area. […] Then, the catheter was removed, and the blood flow after closure of the common carotid artery dextra was restored using a suture. Dynamic scintigrams were prepared over a period of 1 hour with the aid of a commercial gamma camera. Then, the animals were sacrificed, both carotids were removed, and an autoradiography was prepared.

arteriosclerotic plaque = experiment: In vivo and in vitro concentration in WHHL rabbits (gamma camera imaging, autoradiography of the aorta); conditions: 5 hours after administration, 2 mCi via an ear vein
Procedure: In Vivo and In Vitro Concentration of the ^99mTc-Complex of […] in WHHL Rabbits 2 mCi (1 ml) of the […]Tc-complex that is produced according to 5a) is administered to an anesthetized WHHL rabbit (Rompun/Ketavet 1:2) via an ear vein. WHHL rabbits have a high LDL level in the blood because of a deficient or defective LDL receptor and therefore create spontaneously arteriosclerotic vascular alterations. During the test period of 5 hours after the administration, static images of various exposure times and of various positions were produced with a gamma camera ([…]). 5 hours after the administration, the rabbit was sacrificed, and both an autoradiography of the aorta and a Sudan III coloring were carried out.

Substance: ^99mTc Complex of Asp-Gly-Gly-Cys-Gly-Cys-Phe-(D-Trp)-Leu-Asp-Ile-Ile-Trp
- course of the locally administered activity at the administration site after blood flow is restored (common carotid artery; examination period of 1 hour, dynamic scintigrams, right common carotid artery): decreased only insignificantly; also recorded: remains in place; also recorded: decreased only marginally
- share of the injected dose transported locally to the denuded artery (common carotid artery; local administration of 7.4 MBq in 0.9 ml via catheter, denuded right common carotid artery): about 5 % of the injected dose
- accumulation in arteriosclerotic lesions (autoradiography) (arteriosclerotic plaque): 3930 cpm/mm^2
- accumulation in the macroscopically unaltered aorta (autoradiography) (arteriosclerotic plaque): 380 cpm/mm^2
